# Ab-95 light chain CDR variants: yeast mating affinities

Target: peptide PDVDLGDISGINAS, taken from heptad repeat 2 (HR2) of SARS-CoV-2 spike.

Ab-95 is the parent antibody, in scFv form: VH, then the linker GGGGSGGGGSGGGGS, then VL. The heavy chain is unchanged in all variants.
VH: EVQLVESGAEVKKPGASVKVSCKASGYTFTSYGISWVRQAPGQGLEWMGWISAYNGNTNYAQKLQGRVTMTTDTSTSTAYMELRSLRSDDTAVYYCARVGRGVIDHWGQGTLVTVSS
VL: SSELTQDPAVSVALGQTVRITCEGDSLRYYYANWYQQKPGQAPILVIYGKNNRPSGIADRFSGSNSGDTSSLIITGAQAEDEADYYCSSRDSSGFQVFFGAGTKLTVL

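Phage display of a naive human antibody library on the peptide gave the parent. Variants in AAYL52 differ from the parent at up to three CDR positions; double and triple changes were sampled at random. Affinity was read by AlphaSeq, a pooled yeast mating assay with surface-displayed partners. Pairs that bind mate more often; barcode pairs of the diploids are counted by sequencing. A regression on co-assayed BCL2-family reference pairs converts the normalised counts of each replicate to an apparent Kd. The assay was run in three technical replicates.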

Positions count from residue 1 of the parent VL; A32Q puts Q in place of A. Every variant below is changed at S92 of the VL (sequential numbering). Values are log10 of the apparent Kd in nM; lower means stronger binding. The mean shown is taken over the replicates in which the pair was detected. "nd" marks a missing value. The strain was present, yet no cells mated with the target were sequenced in that replicate, which points to weak or no binding.

Variant A32Q R53G S92R showed 2.39, 2.96, 2.49 (mean 2.61). For A32I S92D Q96A, the assay gave nd, nd, 3.13. Variant E23V P54I S92H showed 3.30, 2.99, 3.28 (mean 3.19). With Y31H S92H F95R the result was 2.66, 2.72, 2.56 (mean 2.64). With L27I S92G F95K the result was 3.25, 2.90, 3.57 (mean 3.24). Variant Y29C A32T S92P showed 3.21, 3.07, 2.99 (mean 3.09). Variant Y30N S92T showed 1.05, 0.97, 0.33 (mean 0.78). For Y31D N33L S92D, the assay gave 2.61, 3.03, 2.96 (mean 2.87). Variant N33E S89L S92F gave 4.77, nd, nd.

Variant Y29C N33D S92M gave 2.58, 5.35, nd (mean 3.97). For G49N S92I G94Y, the assay gave nd, nd, nd. For D91N S92C F98M, the assay gave 3.73, 2.96, 3.81 (mean 3.50). Variant G24L Y31P S92H showed 2.63, 2.76, 2.93 (mean 2.77). With G24W S92W F98S the result was 4.72, nd, 4.30 (mean 4.51). For G49I S92G G94A, the assay gave 3.98, nd, nd. With K50F S92A F95N the result was 2.75, 2.84, 3.37 (mean 2.98). Variant Y30G A32N S92G gave 1.73, 1.95, 1.39 (mean 1.69). Variant S92R showed 2.21, 2.40, 2.39 (mean 2.33).

Variant E23V S92G G94C gave 2.32, 2.53, 1.97 (mean 2.28). Variant K50G S92Q showed 1.49, 1.55, 1.07 (mean 1.37). For A32H N52L S92N, the assay gave nd, nd, nd. Variant L27T S92C F98H gave 5.53, 2.86, 3.11 (mean 3.84). With N51S S92I V97D the result was 2.49, 2.60, 1.55 (mean 2.21). Variant Y29T P54S S92Y gave 2.54, 2.84, 3.62 (mean 3.00). Variant A32W P54M S92R showed 3.13, nd, 3.62 (mean 3.37). Variant N52W S92V Q96N gave 3.55, 3.67, 4.63 (mean 3.95). Variant L27W S92W gave 3.97, 3.08, 3.19 (mean 3.41).

With Y29P P54T S92H the result was 2.16, 2.52, 1.98 (mean 2.22). Variant G24T K50T S92E gave nd, nd, nd. With G24Q N52D S92D the result was 2.03, 2.17, 2.14 (mean 2.12). Variant N51M S55K S92A showed 3.57, 2.92, 2.76 (mean 3.08). Variant S92W V97R F98S showed nd, nd, nd. With R90N S92T the result was 3.05, 3.59, 5.04 (mean 3.90). Variant R28P S89K S92D gave 2.65, 2.55, 3.29 (mean 2.83). Variant S92N gave 2.54, 2.19, 1.93 (mean 2.22). With G49L R90K S92N the result was nd, 3.72, nd.

For Y31Q N52D S92Q, the assay gave 0.87, 0.91, 0.14 (mean 0.64). Variant S92H F95R Q96A gave 2.94, 3.22, 2.44 (mean 2.87). Variant K50F S92V gave nd, 3.08, 3.07 (mean 3.08).

A selection of 4 entries from above:

changes	log10 Kd, replicates	mean, log10 nM
L27W S92W	3.97, 3.08, 3.19	3.41
G49I S92G G94A	3.98, nd, nd	3.98
N52W S92V Q96N	3.55, 3.67, 4.63	3.95
S92W V97R F98S	nd, nd, nd	nd

Background: pairings of library AAYL52 with three empty control strains gave a value in 28% of cases (median 3.91, 5th percentile 2.90). Values in that range, when seen in few replicates, are hard to tell from nonspecific mating.

The measurements come from Engelhart et al. 2022 (doi:10.1038/s41597-022-01779-4) through the FLAb antibody collection.